# AlphaSeq binding of Ab-14 heavy chain variants to a spike HR2 peptide

The target is the same throughout: PDVDLGDISGINAS, from the HR2 region of SARS-CoV-2 spike.

Ab-14 is the parent antibody, in scFv form: VH, then three GGGGS repeats, then VL. The light chain is unchanged in all variants.
VH: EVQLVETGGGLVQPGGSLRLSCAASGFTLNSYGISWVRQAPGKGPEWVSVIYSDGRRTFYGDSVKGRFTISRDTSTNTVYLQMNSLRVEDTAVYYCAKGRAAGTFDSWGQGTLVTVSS
VL: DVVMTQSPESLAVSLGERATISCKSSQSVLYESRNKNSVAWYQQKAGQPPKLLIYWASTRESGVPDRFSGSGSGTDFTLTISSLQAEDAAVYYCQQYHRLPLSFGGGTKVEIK

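Phage display of a naive human antibody library on the peptide gave the parent. In library AAYL49, one, two or three CDR residues were substituted; doubles and triples were drawn at random. In AlphaSeq, yeast of one mating type display the scFv and yeast of the other type display the target. The frequency of each diploid, read from paired DNA barcodes, reflects how well the two displayed proteins bind. Read counts were normalised to the haploid input and turned into Kd by a linear fit to BCL2-family pairs of known affinity, for each replicate. The assay was run in three technical replicates.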

Variants are written as CDR1, CDR2 and CDR3 of the heavy chain (limits as in the source). Parent: GFTLNSYGIS, VIYSDGRRTFYGDSVK, GRAAGTFDS.
The read-out is the apparent dissociation constant on a log10 scale (nM): the lower, the stronger.
A mean of the replicates is given; it leaves out those without a signal.
"n.d." marks a missing value. The strain was present, yet no cells mated with the target were sequenced in that replicate, which points to weak or no binding.
Background: pairings of library AAYL49 with three empty control strains gave a value in 15% of cases (median 4.06, 5th percentile 2.83). Values in that range, when seen in few replicates, are hard to tell from nonspecific mating. Also given: how often the same scFv was detected with the empty control strains, with their mean in brackets.

| # | CDR-H1 | CDR-H2 | CDR-H3 | log10 Kd, replicates | mean, log10 nM | empty controls |
|---|---|---|---|---|---|---|
| 1 | GFTLNSYGIS | VIYSDGRRTFYGDQRK | GKAAGTFDS | n.d. n.d. n.d. | n.d. | 0/9 |
| 2 | GFTLNSYGIS | VIYSDGRRWFYRDSNK | GRAAGTFDS | n.d. n.d. n.d. | n.d. | 0/9 |
| 3 | GFTLNSYGIS | VIYSDMRRTFYGDSVK | GRAAGNFDF | n.d. n.d. n.d. | n.d. | 0/9 |
| 4 | GFTLMSLGIS | VIYSDGRRTFYSDSVK | GRAAGTFDS | 5.34 n.d. n.d. | 5.34 | 4/9 (3.93) |
| 5 | GFCLNSYGIS | VIYSDGRRTFYGDSVK | NIAAGTFDS | 1.47 1.26 1.74 | 1.49 | 0/9 |
| 6 | GFYLNSYGRS | VIYSDGRRTFYGDSVK | GRAANTFDS | n.d. n.d. n.d. | n.d. | 0/9 |
| 7 | GFTLNSYGIS | VIYSDGRRTFYRDSVK | GRAGGTFCS | n.d. n.d. n.d. | n.d. | 1/9 (3.64) |
| 8 | GFTLNSYGVS | VIYSDGRRTFYGDSDK | GRAAGSFDS | n.d. n.d. n.d. | n.d. | 1/9 (2.98) |
| 9 | GFTLNSYGIS | VIYDDGRRTFYGDSVK | GRWAGTFDE | n.d. 3.80 n.d. | 3.80 | 3/9 (3.95) |
| 10 | GFTLNSYGIS | VIYSDGDRTCYGPSVK | GRAAGTFDS | 5.01 2.68 n.d. | 3.84 | 1/9 (3.54) |
| 11 | GFTLNVYGIE | VIYSHGRRTFYGDSVK | GRAAGTFDS | n.d. n.d. n.d. | n.d. | 1/9 (2.09) |
| 12 | GFERNSYGIS | VIYSDGRRTFYGDSVA | GRAAGTFDS | n.d. 5.35 5.08 | 5.21 | 3/9 (4.25) |
| 13 | GFDLNSYHIS | EIYSDGRRTFYGDSVK | GRAAGTFDS | 5.81 n.d. n.d. | 5.81 | 2/9 (3.40) |
| 14 | GFTLNSIGIS | VIYSDGRRTFYGDSVA | GEAAGTFDS | 1.54 4.53 2.43 | 2.83 | 0/9 |
| 15 | GFTWNSYGIS | VIYSMGRRTFEGDSVK | GRAAGTFDS | n.d. n.d. n.d. | n.d. | 1/9 (3.51) |
| 16 | GFTYNSYGIS | VIYSDGRRTFYGDSRW | GRAAGTFDS | n.d. n.d. n.d. | n.d. | 1/9 (3.26) |
| 17 | GFTLNSYGIS | VIMSDSNRTFYGDSVK | GRAAGTFDS | 3.62 n.d. n.d. | 3.62 | 0/9 |
| 18 | GFTLNSYGIS | VIYSDGRRTFYGVSVK | GRAMLTFDS | n.d. n.d. n.d. | n.d. | 0/9 |
| 19 | GFTLNSNGIS | VIYSDGFRTFYGDSVK | GRAAWTFDS | n.d. n.d. n.d. | n.d. | 0/9 |
| 20 | QFTLNSYGIS | VIYSDGVRTFYGDSVK | GCAAGTFDS | 4.25 3.25 n.d. | 3.75 | 2/9 (3.32) |
| 21 | GFTLNSYGIS | VIYSDGCRTFYGDSVI | GRAAGTEDS | 4.56 n.d. n.d. | 4.56 | 3/9 (4.53) |
| 22 | GFTLNSYDIS | CIYSDGRRTFYGDSVK | GRAAGTFDS | n.d. 3.89 n.d. | 3.89 | 1/9 (2.68) |
| 23 | GFTLNIYGIS | VIYSDGRRTFYSDSVK | GRAALTFDS | n.d. n.d. n.d. | n.d. | 1/9 (2.77) |
| 24 | GFTLNSYGIS | VIYSDGRRTFYGDWVD | GRVAGTFDS | 1.34 1.71 1.54 | 1.53 | 0/9 |
| 25 | GFTLNSYGIS | VIYSDGRRTFFGSSVK | GRAAGTFDS | 3.17 2.77 2.94 | 2.96 | 1/9 (4.39) |
| 26 | GFWLNSYGSS | VIYSDGRRWFYGDSVK | GRAAGTFDS | n.d. n.d. n.d. | n.d. | 0/9 |
| 27 | GFTENSYGIS | VIYSDGRRTFYGDSVK | GRAHGTFDS | 3.58 2.59 n.d. | 3.08 | 0/9 |
| 28 | GFTLNSYGIS | VIYSDGRRTFYGASVK | GRNAGTFDG | 2.92 n.d. n.d. | 2.92 | 2/9 (3.46) |
| 29 | GFTLNSYGIS | VIYSDGRRTFYWDSVE | TRAAGTFDS | 3.72 n.d. n.d. | 3.72 | 0/9 |
| 30 | NFTLNSYGIS | VIYSDGRRTFYGDSVK | GDAAFTFDS | 2.19 2.07 2.22 | 2.16 | 3/9 (4.77) |
| 31 | GFTLNSYGIS | VVYSDGRRTQYGDSVK | GTAAGTFDS | n.d. n.d. 5.54 | 5.54 | 3/9 (4.39) |
| 32 | HFTLNSYGIS | VIYSDGRPTFYGDSVK | RRAAGTFDS | n.d. n.d. n.d. | n.d. | 0/9 |
| 33 | GFTLNSYGIS | VPYSDGRRTFYGDSVK | GRMAGTFDS | n.d. n.d. n.d. | n.d. | 1/9 (3.27) |
| 34 | GFTLNSRGIS | VIYSDGRRTFYGDSVL | GRAGGTFDS | n.d. 4.55 n.d. | 4.55 | 5/9 (4.45) |
| 35 | GFTLNSYGIS | VIYSDGRRTFYGQSVK | GYAAGTFQS | 2.74 2.62 2.21 | 2.53 | 1/9 (3.45) |
| 36 | GFTLRSYGIS | VIYSAGRRTFYGDSVK | GRAAGSFDS | n.d. n.d. n.d. | n.d. | 0/9 |
| 37 | GFTLNSYGIV | VIYSDGRRTFYGDSVK | GRAAGTFHT | 1.83 1.70 1.68 | 1.74 | 1/9 (3.52) |
| 38 | GFTLNSYGIS | AIYSDGRRTMYGDSVH | GRAAGTFDS | n.d. 3.42 4.20 | 3.81 | 3/9 (3.25) |
| 39 | GFTLNSYGIT | VIYWDGRRTFYGDSVK | GRAAGRFDS | n.d. n.d. n.d. | n.d. | 0/9 |

Picked from the list: the 4 lowest averages where every replicate gave a value.

CDR-H1,CDR-H2,CDR-H3,"log10 Kd, replicates","mean, log10 nM",empty controls
GFCLNSYGIS,VIYSDGRRTFYGDSVK,NIAAGTFDS,1.47 1.26 1.74,1.49,0/9
GFTLNSYGIS,VIYSDGRRTFYGDWVD,GRVAGTFDS,1.34 1.71 1.54,1.53,0/9
GFTLNSYGIV,VIYSDGRRTFYGDSVK,GRAAGTFHT,1.83 1.70 1.68,1.74,1/9 (3.52)
NFTLNSYGIS,VIYSDGRRTFYGDSVK,GDAAFTFDS,2.19 2.07 2.22,2.16,3/9 (4.77)

Source: Engelhart et al. 2022 (doi:10.1038/s41597-022-01779-4), MIT Lincoln Laboratory and A-Alpha Bio; data file from the FLAb repository.